The results in this text go back to US8034940B2, “Modulators of glucocorticoid receptor, AP-1, and/or NF-κB activity and use thereof” (Bristol-Myers Squibb Company, priority 2006, dated 2011).

Protein sequences, listed by entry. Tags and fused reporters are not part of them.
UniProt P04150, whole entry: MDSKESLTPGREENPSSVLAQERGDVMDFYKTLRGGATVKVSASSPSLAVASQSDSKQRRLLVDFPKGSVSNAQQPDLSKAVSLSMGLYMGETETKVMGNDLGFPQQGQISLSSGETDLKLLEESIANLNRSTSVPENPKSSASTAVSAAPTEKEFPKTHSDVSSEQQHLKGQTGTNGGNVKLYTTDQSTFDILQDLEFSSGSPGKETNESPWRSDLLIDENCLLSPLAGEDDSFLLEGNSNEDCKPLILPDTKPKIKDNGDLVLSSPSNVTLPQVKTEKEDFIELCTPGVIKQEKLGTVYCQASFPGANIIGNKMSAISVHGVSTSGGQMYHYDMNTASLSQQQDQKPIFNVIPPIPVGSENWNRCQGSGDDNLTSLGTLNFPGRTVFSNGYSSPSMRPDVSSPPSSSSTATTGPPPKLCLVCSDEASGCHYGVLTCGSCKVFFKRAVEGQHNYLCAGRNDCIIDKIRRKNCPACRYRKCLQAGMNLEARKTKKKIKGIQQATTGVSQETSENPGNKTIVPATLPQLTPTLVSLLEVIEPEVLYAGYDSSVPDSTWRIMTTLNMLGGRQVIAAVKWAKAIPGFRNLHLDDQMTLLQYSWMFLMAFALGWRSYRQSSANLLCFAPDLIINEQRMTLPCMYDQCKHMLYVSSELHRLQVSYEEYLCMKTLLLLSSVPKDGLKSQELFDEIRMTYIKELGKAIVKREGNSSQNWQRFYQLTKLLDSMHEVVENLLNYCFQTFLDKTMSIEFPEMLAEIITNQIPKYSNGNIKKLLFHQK

Assay [1] deals with T1, human full-length glucocorticoid receptor (Homo sapiens, UniProt P04150). Kind of assay: Glucocorticoid Receptor Binding Assay (I), fluorescence polarization, Fluormone GS Red. Particulars: read-out: GR (Ki, nM) (GR Binding Assay (I)). (Fluorescence polarisation rises when a labelled molecule tumbles more slowly, as on binding a larger partner.)
For assay [2], the target named is T1, human full-length glucocorticoid receptor. Description: Glucocorticoid Receptor Binding Assay (II), fluorescence polarization, FITC-dexamethasone. The settings on record: read-out: GR (Ki, nM) (GR Binding Assay (II)).

As a reminder, the Ki is a measure of affinity in units of concentration, obtained from inhibition or displacement.

With `CCCC#Cc1ccc2c(n1)Oc1ccccc1[C@@H]2C(C)(C)C(=O)Nc1nncs1`, the Ki in assay [1] is 4 nM.

Take `CCCC(=O)Nc1ccc2c(n1)Oc1ccccc1[C@@H]2C(C)(C)C(=O)Nc1nncs1`: the Ki in assay [1] amounted to 7.58 nM.

For the compound `COc1ccc2c(n1)Oc1ccccc1C2C(C)(C)C(=O)Nc1nncs1` (centres unmarked), the Ki in assay [1] came out at 56.1 nM.

Take `CC(C)(C(=O)Nc1nncs1)[C@H]1c2ccccc2Oc2nc(-c3ccc(C(=O)N4CCC[C@H]4CO)cc3)ccc21`: in assay [1], the Ki was found to be 9.56 nM.

As for `CN(Cc1ccccc1)c1ccc2c(n1)Oc1ccccc1C2C(C)(C)C(=O)Nc1nccs1` (centres unmarked), the inhibition constant (Ki) in assay [2] amounted to 80.9 nM.
